Test results reported in US12145927B2 (BRISTOL-MYERS SQUIBB COMPANY, priority 2018, dated 2024).

Amino acid sequences for entries named in this document (tags omitted).
UniProt P14902, whole entry: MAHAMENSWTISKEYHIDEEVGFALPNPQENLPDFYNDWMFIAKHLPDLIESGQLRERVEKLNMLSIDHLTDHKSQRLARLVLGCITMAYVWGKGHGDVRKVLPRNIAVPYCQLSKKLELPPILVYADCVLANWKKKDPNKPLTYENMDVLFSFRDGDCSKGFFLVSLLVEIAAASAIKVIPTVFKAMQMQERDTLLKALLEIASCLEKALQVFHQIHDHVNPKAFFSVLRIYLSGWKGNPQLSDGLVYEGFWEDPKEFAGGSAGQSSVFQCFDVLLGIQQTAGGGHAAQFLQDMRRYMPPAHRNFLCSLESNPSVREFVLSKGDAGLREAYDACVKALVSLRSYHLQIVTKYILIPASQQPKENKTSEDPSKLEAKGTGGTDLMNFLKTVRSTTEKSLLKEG

Target: human IDO1 (Homo sapiens, UniProt P14902)
Test: IDO inhibition assay in human IDO1/HEK293 cells (IDO1 HEK Human)
Details: read-out: IDO1 HEK Human IC50; HEK293 cells stably expressing human IDO1; 20 hours incubation; absorbance at 490 nm after Ehrlich reagent
Protocol: HEK293 cells were transfected with a pCDNA-based mammalian expression vector harboring human IDO1 cDNA (NM 002164.2) by electroporation. They were cultured in medium (DMEM with 10% FBS) containing 1 mg/ml G418 for two weeks. Clones of HEK293 cells that stably expressed human IDO1 protein were selected and expanded for IDO inhibition assay.
The human IDO1/HEK293 cells were seeded at 10,000 cells per 50 μL per well with RPMI/phenol red free media contains 10% FBS in a 384-well black wall clear bottom tissue culture plate (Matrix Technologies LLC) 100 nL of certain concentration of compound was then added to each well using ECHO liquid handling systems. The cells were incubated for 20 hours in 37° C. incubator with 5% CO2.
The compound treatments were stopped by adding trichloroacetic acid (Sigma-Aldrich) to a final concentration at 0.2%. The cell plate was further incubated at 50° C. for 30 minute. The equal volume supernatant (20 μL) and 0.2% (w/v) Ehrlich reagent (4-dimethylaminobenzaldehyde, Sigma-Aldrich) in glacial acetic acid were mixed in a new clear bottom 384-well plate. This plate was then incubated at RT for 30 minute. The absorbance at 490 nm was measured on Envision plate reader. […]

IC50: 52 nM
Compound: CC[C@H]1Oc2c(NC(=O)Nc3ccc(C)cc3)cc(-c3ccccc3-c3nnn[nH]3)cc2[C@@H]1c1ccccc1 (relative stereo)
